One molecule from patent US20050009748A1, “Compositions for delivering peptide YY and PYY agonists” (Emisphere Technologies, Inc., priority 2003, published 2005) can be followed below.

The structures appear in SMILES notation.

The nature of this series: Solid oral delivery of PYY[3-36] in feed restricted rats (serum PYY radioimmunoassay). The format is in vivo, Male Sprague Dawley rats. The following applies: 1 tablet per animal, Delivery Agent 50 mg/kg, PYY[3-36] 0.3 mg/kg. Here is the method:
An oral dosing tube was used.
Blood samples were collected serially from the tail artery, by cardiac puncture, or as in this case by retro-orbitally, typically at time=0, 15, 30, 60 and 90 minutes.

As to `O=C(O)CCCCCCCNC(=O)c1ccccc1O` [Delivery Agent 1, N-(8-[2-hydroxybenzoyl]-amino)caprylic acid], the “Mean serum peak of PYY (pg/ml) ± SD” value was found to be 511.5 ± 493.5 pg/mL.
